Patent US5998437A, “Benzimidazole derivatives” (Otsuka Pharmaceutical Co., Ltd., priority 1995, dated 1999)

What was measured:
[1] = target: cGMP-PDE (Homo sapiens, UniProt O76074); assay: Activity for inhibiting cGMP PDE (PDE partially purified from human platelets, FI fraction); assay type: biochemical; conditions: read-out: Activity for inhibiting cGMP-PDE [IC50 (μM)], 0.4 μM of [3H]-cGMP
Procedure: (1) Measurement of the Activity for Inhibiting cGMP PDE
Separation and partial purification of PDE (phosphodiesterase) from human platelets, and measurement of the activity for inhibiting cGMP PDE were conducted by the method of Hidaka, et al. [Biochimica et Biophysica Acta, Vol. 429, (1976), pp. 485-497]. The platelets obtained from human healthy adult were washed, and suspended in TRIS-buffer solution, then said suspension was treated by centrifugal separation, the supernatant was subjected to a DEAE-cellulose treatment and fractionated into FI to FIII fractions by a method of concentration gradient of sodium acetate. Thus obtained FI fraction was used as the sample of cGMP-PDE. The activity for inhibiting cGMP-PDE was measured by using 0.4 μM of [^3 H]-cGMP.

[2] = test system: human fibroblast; assay: Activity for inhibiting proliferation of the human fibroblast ([3H]-thymidine uptake); conditions: read-out: Activity for inhibiting proliferation of the human fibroblast, IC50, tested form: HCl
Procedure: (§1) Test was conducted by the modified method of N. Morisaki [Atherosclerosis, Vol. 71, (1988), pp. 165-171]. The rat A10 cells (purchased from Dainippon Pharmaceutical Co., Ltd.) were inoculated on a 24 wells immunoplate at a density of 10,000 cells/well, and were cultured in 10% FBS (fetal bovine serum) for 2 days, and in order to introduce the cells into the resting stage, the cells were further cultured in a serum-free medium for 2 days. After that, 1% FBS was added thereto for stimulating the proliferation, of the cells and at the same time, a test compound and 0.5 μCi/well of [^3 H]-thymidine were added. As to the index of synthesized amount of DNA, the quantity of [^3 H]-thymidine being uptaken by the cells was measured at the time of 24 hours after the final cultivation was started.
(3) Measurement of the Activity for Inhibiting Proliferation of the Human Fibroblast
Similar to the activity for inhibiting proliferation of rat A10 cells as mentioned above, the activity for inhibiting proliferation of the human fibroblast (purchased from Dainippon Pharmaceutical Co., Ltd.) was determined by measuring the uptake amount of [^3 H]-thymidine. Compounds of Examples 3, 16, 31, 33, 45 and 47 were used for the test, and the measured values of IC50 were, 0.04 μM, 0.049 μM, 0.18 μM, 0.042 μM, 0.041 μM and 0.021 μM, respectively.

[3] = test system: rat A10 cells; assay: Activity for inhibiting proliferation of rat A10 cells ([3H]-thymidine uptake); assay type: cell-based; conditions: read-out: Activity for inhibiting proliferation of rat A10 cells [IC50 (μM)]; 1% FBS stimulation, 24 hours
Procedure: (2) Measurement of the Activity for Inhibiting Proliferation of Rat A10 Cells
as §1

IC50 ([1]; tested form: HCl) [µM] | SMILES | IC50 [2] [nM] | IC50 [1] [µM] | IC50 [3] [µM]
0.03 | O=C(Nc1cn(CCCn2ccnc2)c2ccccc12)c1nc2ccc(Cl)cc2n1Cc1ccccc1 | 180 | – | –
– | O=C(Nc1c[nH]c2ccccc12)c1nc2ccc(Cl)cc2n1Cc1ccccc1 | – | 0.06 | 0.24

Like-named read-outs stand apart in the source and are kept apart here.
